Among the data in article PMC5411959, “Potential Antiosteoporotic Natural Product Lead Compounds That Inhibit 17β-Hydroxysteroid Dehydrogenase Type 2” (Journal of Natural Products, 2017) are selectivity factor and IC50 values, retold here.

One experiment addresses T1, human 17β-HSD1 (Homo sapiens, UniProt P14061).
T1 construct: expressed in transfected cells; host or cells: HEK-293 (ATCC), used as cell lysate
T1 sequence (P14061 1-328): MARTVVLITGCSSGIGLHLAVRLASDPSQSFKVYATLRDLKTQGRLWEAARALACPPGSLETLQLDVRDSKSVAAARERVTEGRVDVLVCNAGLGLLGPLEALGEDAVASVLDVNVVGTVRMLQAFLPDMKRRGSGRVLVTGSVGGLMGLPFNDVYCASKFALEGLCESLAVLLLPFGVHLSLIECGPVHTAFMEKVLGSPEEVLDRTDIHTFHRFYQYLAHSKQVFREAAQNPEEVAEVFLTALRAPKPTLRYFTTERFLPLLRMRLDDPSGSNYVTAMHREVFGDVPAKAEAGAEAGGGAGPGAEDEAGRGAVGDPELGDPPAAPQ
Kind of experiment: 17β-HSD1 activity assay using lysates of HEK-293 cells expressing the recombinant human enzyme. It is filed as biochemical. The note with it: 17β-HSD1 versus 17β-HSD2.

Another experiment deals with 17β-HSD2. More on the design: method as in PMID 18533708. To be noted: read-out: inhibition of 17β-HSD2: IC50 (μM); mean ± SD; cited from earlier work.

As to `O=C(/C=C/c1ccc(O)c(O)c1)O[C@H](Cc1ccc(O)c(O)c1)C(=O)O` [compound 11, rosmarinic acid], at human 17β-HSD1, the selectivity factor is listed as greater than 5. A word on the IC50: it is the point on the concentration scale where inhibition reaches its midpoint. Consider `O=c1c(-c2ccc(O)cc2)coc2cc(O)cc(O)c12` [compound 32, genistein], for which, in the experiment with 17β-HSD2, the IC50 was 16.5 ± 2.7 µM.
